Read-outs that look alike come from different tables or passages of the source.

By UniProt entry, the sequences of proteins in these tests, tags left out. Residues count along the entry.
UniProt Q9NZQ7, 19-238 limits assumed: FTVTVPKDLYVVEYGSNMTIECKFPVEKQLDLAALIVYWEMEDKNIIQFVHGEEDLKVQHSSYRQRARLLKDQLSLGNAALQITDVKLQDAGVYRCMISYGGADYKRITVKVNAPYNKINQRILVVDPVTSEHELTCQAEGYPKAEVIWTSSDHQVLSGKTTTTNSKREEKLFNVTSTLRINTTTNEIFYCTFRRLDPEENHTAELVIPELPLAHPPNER

The assay concerns the target PD-1/PD-L1 interaction (Homo sapiens, UniProt Q9NZQ7). Nature of the assay: PD-1/PD-L1 HTRF assay. The class given is biochemical. (In general: TR-FRET usually uses a lanthanide donor and a delayed reading to cut background.)
Setting [1] is: read-out: IC50, anti-PD-1/PD-L1 potency, values given in μM.

In the case of `Cc1c(COc2cc(OCc3cccc(C#N)c3)c(CN3CCCCC3C(=O)O)cc2Cl)cccc1-c1ccccc1` (single isomer, unassigned), the IC50 (read-out: IC50, anti-PD-1/PD-L1 potency) is 0.0145 µM.

On to `Cc1c(COc2cc(OCc3ccc(OC(F)(F)F)cc3)c(CN3CCCCC3C(=O)O)cc2Cl)cccc1-c1ccccc1` (stereo not drawn), for which the IC50 under setting [1] turned out to be 1 µM.

In the case of `CCOC(=O)COc1cc(OCc2cccc(-c3ccccc3)c2C)c(Cl)cc1CN1CCCCC1C(=O)O` (stereo not drawn), the IC50 under setting [1] turned out to be 1 µM.

Values taken from article PMC9974934, “Bifunctional small molecules targeting PD-L1/CXCL12 as dual immunotherapy for cancer treatment” (Signal Transduction and Targeted Therapy, 2023).
